Measured affinities in a library of Ab-14 heavy chain variants

The target is the same throughout: PDVDLGDISGINAS, from the HR2 region of SARS-CoV-2 spike.

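The starting antibody came from a phage panning campaign against this peptide. This is the validation round: designs drawn from the data on random variants, tested in the same kind of assay. Their group label is 14H_GPLM_Gibbs (GPLM: also part of the Gaussian process libraries; Gibbs: Gibbs sampling; a sequence that several methods proposed may carry one label only). The scFvs were displayed on barcoded MATa yeast, the peptide on MATalpha yeast. After mating in shaken culture at 30 °C for 16 h, diploids were selected and their barcode pairs sequenced. Read counts were normalised to the haploid input and turned into Kd by a linear fit to BCL2-family pairs of known affinity, for each replicate. The assay was run in six technical replicates.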

Ab-14 is the parent antibody, in scFv form: VH, then a (GGGGS)3 linker, then VL. The light chain is unchanged in all variants.
VH: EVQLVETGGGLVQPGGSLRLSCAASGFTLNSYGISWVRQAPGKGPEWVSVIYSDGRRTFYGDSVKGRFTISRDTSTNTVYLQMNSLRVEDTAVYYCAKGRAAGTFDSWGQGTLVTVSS
VL: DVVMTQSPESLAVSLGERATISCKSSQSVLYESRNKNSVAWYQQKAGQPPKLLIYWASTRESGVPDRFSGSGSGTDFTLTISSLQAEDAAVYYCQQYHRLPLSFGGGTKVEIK

Each variant is given by its three heavy chain CDRs, as the data file delimits them; those of the parent are GFTLNSYGIS, VIYSDGRRTFYGDSVK, GRAAGTFDS.
Scale: log10 of Kd in nM, estimated from mating counts; low values are strong binders.
Averages over replicates are reported, and they cover detected replicates only.
"nd" marks a missing value. The strain was present, yet no cells mated with the target were sequenced in that replicate, which points to weak or no binding.
Of ten entries with the parent sequence, four were seen in most replicates (averages 0.34 to 2.37), three in one and three in none, so single entries are noisy.
In the paper, a design with two or fewer of six values counts as a poor binder.
The range of this assay differs from that of the first round, and the authors advise against merging the two.
Background: pairings of all heavy chain designs with three empty control strains gave a value in 1% of cases (median 2.08, 5th percentile 0.84). Values in that range, when seen in few replicates, are hard to tell from nonspecific mating. Also given: how often the same scFv was detected with the empty control strains, with their mean in brackets.

CDR-H1,CDR-H2,CDR-H3,"replicates, log10 nM",mean log10 Kd (nM),signal with controls
GFNLNSYGIS,VIYSDGRRTFYHDSVK,GRVAGTFDS,0.59 / nd / nd / 0.16 / -0.27 / 0.09,0.14,0 of 18
GFDLNTYGIS,VIYSDGRRTFYGDSVK,GNAAGTFDS,0.00 / -0.20 / 0.02 / -0.22 / 0.08 / -0.16,-0.08,1 of 18 (2.31)
GFDLNSYGIS,VIYSDGRRTFYVDSVK,GTAAGTFDS,0.18 / 0.03 / -0.43 / -0.52 / 0.05 / -0.78,-0.25,0 of 18
GFSLNSYGIS,VIYSDGRRTFYGDSVK,GSTAGTFDK,nd / nd / nd / nd / nd / nd,nd,0 of 18
GFELNSYGIS,VIYSDGRRTFYADSVK,GQEAGTFDS,-0.12 / -0.03 / -0.09 / -0.41 / -0.33 / -0.24,-0.20,0 of 18
GFTLESYGIS,VIYSDGRRTFYGDSVK,GRTAGTFDT,0.18 / 0.45 / 0.71 / 0.55 / 0.34 / 0.54,0.46,0 of 18
GFNLNSYGIS,VIYSDGRRTFYADSVK,GHEAGTFDS,nd / nd / nd / nd / nd / nd,nd,0 of 18
GFNLNSYGIS,VIYSDGRRTFYGDSVK,GRHAGTFDS,nd / 1.11 / nd / 1.12 / 1.96 / nd,1.39,0 of 18
GFELNSYGIS,VIYSDGRRTFYIDSVK,GQAAGTFDK,nd / 0.49 / 0.97 / 0.80 / nd / 0.84,0.77,0 of 18
GFNLNSYGIS,VIYSDGRRTFYADSVK,GNVAGTFDS,0.11 / 0.07 / -0.27 / -0.30 / -0.03 / -0.03,-0.07,4 of 18 (3.28)
GFTLNSYGIS,VIYSDGKRTFYSDSVK,GKVAGTFDS,0.21 / 0.51 / -0.17 / 0.08 / 0.44 / 0.17,0.21,0 of 18
GFTLNSYGIS,VIYSDGRRTFYADSVK,GKLAGTFDS,0.91 / 0.90 / 0.79 / 0.99 / 0.33 / 0.53,0.74,0 of 18
GFNLNSYGIS,VIYSDGRRTFYGDSVK,GAAAGTFDS,nd / 1.14 / 1.80 / 1.33 / 1.45 / 1.27,1.40,0 of 18
GFTLNSYGIS,VIYSDGRRTFYGDSVK,GQTAGTFDK,1.65 / 1.12 / 1.32 / 0.89 / 1.20 / 1.34,1.25,0 of 18
GFELNSYGIS,VIYSDGRRTFYSDSVK,GQTAGTFDS,0.08 / 0.42 / -0.26 / -0.33 / -0.83 / 0.12,-0.13,0 of 18
GFTLNSYGIS,VIYSDGRRTFYIDSVK,GRQAGTFDS,nd / nd / nd / nd / 1.66 / nd,1.66,0 of 18
GFLLNDYGIS,VIYSDGRRTFYHDSVK,GRTAGTFDS,0.93 / 0.69 / 0.65 / 0.34 / 0.16 / 0.93,0.62,0 of 18
GFSLNSYGIS,VIYSDGRRTFYSDQVK,GQTAGTFDS,0.18 / 0.01 / -0.26 / -0.13 / 0.18 / 0.22,0.03,0 of 18
GFNLNTYGIS,VIYSDGRRTFYGDSVK,GKAAGTFDS,0.45 / 1.13 / 1.21 / 2.15 / nd / nd,1.23,0 of 18
GFDLNSYGIS,VIYSDGRRTFYGDKVK,GRTAGTFDS,0.90 / 1.45 / 0.82 / nd / 0.40 / nd,0.89,0 of 18
GFELNSYGIS,VIYSDGRRTFYGDSVK,GKTAGTFDA,0.49 / 0.40 / 0.15 / -0.08 / 0.09 / 0.32,0.23,0 of 18
GFSLNTYGIS,VIYSDGRRTFYGDSVK,GTAAGTFDS,0.09 / -0.05 / -0.19 / -0.08 / -0.02 / 0.18,-0.01,0 of 18
GFELNSYGIS,VIYADGRRTFYGDSVK,GKAAGTFDR,0.06 / -0.38 / -0.16 / -0.19 / -0.14 / 0.23,-0.10,0 of 18
GFNLNSYGIS,VIYSDGRRTFYIDSVK,GREAGTFDS,nd / 0.67 / 0.28 / -0.03 / 0.57 / 0.23,0.34,1 of 18 (2.86)
GFSLNSYGIS,VIYSDGRRTFYGDQVK,GRTAGTFDL,1.12 / 1.52 / 0.79 / 0.78 / 0.02 / 0.52,0.79,0 of 18

For reference, 3 entries of the list once more:

CDR-H1,CDR-H2,CDR-H3,"replicates, log10 nM",mean log10 Kd (nM),signal with controls
GFELNSYGIS,VIYADGRRTFYGDSVK,GKAAGTFDR,0.06 / -0.38 / -0.16 / -0.19 / -0.14 / 0.23,-0.10,0 of 18
GFELNSYGIS,VIYSDGRRTFYIDSVK,GQAAGTFDK,nd / 0.49 / 0.97 / 0.80 / nd / 0.84,0.77,0 of 18
GFNLNTYGIS,VIYSDGRRTFYGDSVK,GKAAGTFDS,0.45 / 1.13 / 1.21 / 2.15 / nd / nd,1.23,0 of 18

Source: Li et al. 2023 (doi:10.1038/s41467-023-39022-2), MIT Lincoln Laboratory and A-Alpha Bio; data file from the FLAb repository.